From article PMC5785486, “Enhanced Skin Permeation of Anti-wrinkle Peptides via Molecular Modification” (Scientific Reports, 2018)

Experiments:
[1] = cited from earlier work
[2] = cited from earlier work; remark: listed apart in the source
[3] = In vitro skin permeation, vertical Franz diffusion cells; details: vertical Franz cell 1 cm^2, human dermatomed cadaver skin, 400 µL saturated solution (max 1% w/w), receptor 4.8 mL 1X PBS, 32 °C, 180 rpm, HPLC-UV 215 nm, mean of triplicates
[4] = Saturated peptide solution (solubility in solvent); details: neat PG; thermodynamic, excess peptide shaken 48 h at room temperature, centrifuged 10000 rpm 3 minutes, supernatant assayed

In the case of `CSCC[C@H](NC(=O)[C@H](CCC(=O)O)NC(=O)[C@H](CCC(=O)O)NC(C)=O)C(=O)N[C@@H](CCC(N)=O)C(=O)N[C@@H](CCCNC(=N)N)C(=O)N[C@@H](CCCNC(=N)N)C(N)=O`, the LogP [1] is given as −6.3, the “Share of total amount permeated through and stayed in the human epidermis” value ([2]; 10% w/w in an O/W emulsion) is given as 0.23% and the “Share of peptide that made it through to the epidermis” value ([2]; in vitro, human cadaver skin) is given as 0.01%. The “Share of total amount permeated through the skin and retained within stratum corneum” value ([2]; in vitro, human cadaver skin) was 0.22%, the “Cumulative Amount Permeated Through Skin after 24 hrs, Average” value (shortened to “Cumulative Amount Permeated Through Skin”) ([3]; 0% PG (pure water) donor) was 76.4 µg and the “Cumulative Amount Permeated Through Skin” value ([3]; 30% PG in water donor) was 153.2 µg. For the same compound, the “Cumulative Amount Permeated Through Skin” value ([3]; 50% PG in water donor) was 53.5 µg, the “Cumulative Amount Permeated Through Skin” value ([3]; 70% PG in water donor) was 667.4 µg and the “Cumulative Amount Permeated Through Skin” value ([3]; 100% PG (pure PG) donor) was 144.4 µg. The “Concentration of saturated solution in the donor compartment” value [4] was 0.2 % w/w.
